Test results published in PubChem BioAssay AID1009 (NMMLSC, 2008).
The entries are a selection whose mix differs from that of the whole data set. Activity calls are given as the source filed them. No stated cut-off is given here; in the data, active means inhibition above about 40%.

Chains of the proteins cited; added tags and fusions are not shown.
UniProt Q07820, whole entry, looked up: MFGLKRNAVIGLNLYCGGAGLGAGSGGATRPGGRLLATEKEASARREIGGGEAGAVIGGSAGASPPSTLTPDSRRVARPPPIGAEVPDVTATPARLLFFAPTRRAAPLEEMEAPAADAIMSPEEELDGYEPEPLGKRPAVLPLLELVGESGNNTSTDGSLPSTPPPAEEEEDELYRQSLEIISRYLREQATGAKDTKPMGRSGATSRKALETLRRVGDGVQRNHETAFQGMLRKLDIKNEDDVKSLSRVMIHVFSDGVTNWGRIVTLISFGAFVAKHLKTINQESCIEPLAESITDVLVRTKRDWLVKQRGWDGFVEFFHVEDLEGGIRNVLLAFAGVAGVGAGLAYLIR

target: Induced myeloid leukemia cell differentiation protein Mcl-1 (Homo sapiens) (UniProt Q07820); experiment: Mcl-1/Bim interaction disruptors – biochemical, bead-based flow cytometry, multiplex, primary screen (AID 1009); details: Bim peptide-Mcl-1 binding, at 10 µM, hits give high values;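 further: 0% = no compound tracer wells and 100% = peptide blocker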

Compound | inhibition
Clc1n[nH]nc1-c1nn[nH][15n]1 | inactive: -5%
O=P1(Nc2ccccn2)COc2ccccc2OC1 | inactive: -2%
CN(C(=O)Cc1ccc(Cl)c(Cl)c1)[C@@H]1CCCC[C@H]1N1CCCC1 | inactive: 0%
CC(C)/C=N\N=C(\N)N[N+](=O)[O-] | inactive: 0%
CN(C)C1(CNC(=O)c2ccc(S(C)(=O)=O)cc2)CCCCC1 | inactive: 0%
Cc1nn(-c2ccccc2)c2c1P(=O)(N1CCOCC1)N(C)C(c1ccccc1)=N2 (centres undefined) | inactive: 0%
CC1CCC(C(C)C)C(OP(=O)(Nc2ccccn2)c2ccccc2)C1 (centres undefined) | inactive: 0%
Cc1ccc(OCC(=O)OC2CN3CCC2CC3)cc1 (centres undefined) | inactive: -3%
O=P1(Nc2ccc(Br)cn2)COc2ccccc2OC1 | inactive: 1%
O=P1(Nc2ncccn2)COc2ccccc2OC1 | inactive: 2%
CCOP1(=S)c2c(C)nn(CCC#N)c2N=C(c2ccccc2F)N1C (centres undefined) | inactive: -1%
O=P(Nc1nccs1)(Oc1ccccc1)Oc1ccccc1 | inactive: 0%
O=P(Nc1nccs1)(c1ccccc1)c1nc2ccccc2s1 (centres undefined) | inactive: -1%
O=[N+]([O-])c1ccc2c(c1)nnn2O | inactive: -2%
CCOP1(=S)c2c(C)nn(CCC#N)c2N=C(c2ccc(F)cc2)N1C (centres undefined) | active: 52%
Cc1cccc(OCC(=O)OC2CN3CCC2CC3)c1 (centres undefined) | inactive: 20%
COc1cc(C(=O)NCC2(N3CCOCC3)CCCCC2)cc(Cl)c1OC(C)C | inactive: -3%
COc1cc(C2NCCC3(OCCO3)C2(C)C)cc(OC)c1OC (centres undefined) | inactive: -4%
CCOP(=O)(Nc1cccc2ccccc12)OCC | inactive: -7%
Cc1ccc(NCCc2c([N+](=O)[O-])cc([N+](=O)[O-])cc2[N+](=O)[O-])cc1 | inactive: -2%
COc1ccc2nc(NP(=O)(c3ccccc3)c3ccccc3)sc2c1 | inactive: -1%
O=C(OC1CN2CCC1CC2)C12CC3CC(CC(C3)C1)C2 (centres undefined) | inactive: -1%
Cc1cc(=O)[nH]c(N[N+](=O)[O-])n1 | inactive: 0%
Cc1c2c(nc3ccccc13)SC(C(Cl)Cl)C2 (centres undefined) | inactive: -2%
COc1ccc(N/C(=N/P(=O)(N2CCOCC2)N2CCOCC2)N2CCOCC2)cc1 | inactive: -1%
Cc1ccc2nc3c(c(C)c2c1)CC(C(Cl)Cl)S3 (centres undefined) | inactive: -5%
CC(C)NC(=O)NP(=O)(Oc1ccccc1)Oc1ccccc1 | inactive: -2%

Compound | inhibition
CCN(CC)C(=S)SC(NC=O)C(Cl)(Cl)Cl (centres undefined) | inactive: -5%
O=[N+]([O-])c1cc([N+](=O)[O-])c(-c2ccn[nH]2)s1 | inactive: -22%
ClCCSc1nnc(-c2cccnc2)o1 | inactive: -8%
Cc1cc(SC(NC(=O)c2ccccc2)C(Cl)(Cl)Cl)nc(C(C)C)n1 (centres undefined) | inactive: -9%
Cc1cc(SC(NC=O)C(Cl)(Cl)Cl)ncn1 (centres undefined) | inactive: -4%
O=P(Nc1ccccn1)(c1cccc2ccccc12)c1cccc2ccccc12 | inactive: -3%
O=C(COc1ccccc1)OC1CN2CCC1CC2 (centres undefined) | inactive: -2%
COP1(=S)c2c(C)nn(CCC#N)c2N=C(c2ccc(F)cc2)N1C (centres undefined) | inactive: -1%
CCC(C)N(CC(C)C)C(=S)SC(NC(C)=O)C(Cl)(Cl)Cl (centres undefined) | inactive: 0%
CC(=O)N1C2C3N(C(C)=O)C1C1N(C(C)=O)C(C(N1C(C)=O)N3C(C)=O)N2C(C)=O | inactive: 29%
O=[N+]([O-])c1cccc2n[nH]nc12 | inactive: 0%
Cc1ccc(NP(=O)(Oc2ccccc2)Oc2ccccc2)nc1 | inactive: 3%
O=[N+]([O-])c1cc([N+](=O)[O-])c(CCNc2ccccc2)c([N+](=O)[O-])c1 | inactive: 3%
CCc1nc2c(n1)c1c(non1O)c1c2no[n+]1[O-] | inactive: 24%
COc1ccc(C2=NCC(CBr)S2)cc1 (centres undefined) | inactive: -2%
CC(C)=N/N=C(\N)N[N+](=O)[O-] | inactive: -6%
CN(C)C(=O)OCCc1n(C)cc[n+]1C | inactive: -8%
CC1CCN(C(=O)Oc2c(Cl)cc(Cl)c3cccnc23)CC1 | inactive: -2%
CCN(/C(=N/P(=O)(N1CCOCC1)N1CCOCC1)N1CCOCC1)c1ccc(OC)cc1 | inactive: 0%
O=[N+]([O-])c1ncn(CCn2ncnc2[N+](=O)[O-])n1 | inactive: -1%
Cc1cc(SC(NC(=O)c2ccc(F)cc2)C(Cl)(Cl)Cl)ncn1 (centres undefined) | inactive: -13%
CCOP(=O)(Nc1ccccc1)OCC | inactive: 0%
CCN(N=Nc1nonc1N)c1nonc1N | inactive: -5%
COc1ccccc1OP(=O)(Nc1ccc(C)cn1)Oc1ccccc1OC | inactive: 3%
CN1CCCC(OC(=O)C(c2ccccc2)c2ccccc2)C1 (centres undefined) | inactive: 0%
Clc1ccc(Cl)c(NC2=NCC(CBr)S2)c1 (centres undefined) | inactive: -3%
NC(=O)c1cc([N+](=O)[O-])cc([N+](=O)[O-])c1N | inactive: -1%

Compound | inhibition
Cc1ccc(N/C(=N/P(=O)(N2CCOCC2)N2CCOCC2)N2CCOCC2)cc1 | inactive: -2%
CC(C)CC(=O)NC(Sc1ccc(Cl)cc1)C(Cl)(Cl)Cl (centres undefined) | inactive: 0%
Oc1ccccc1CNc1ccccn1 | inactive: -5%
O=C(NC(Sc1ccncn1)C(Cl)(Cl)Cl)c1ccccc1 (centres undefined) | inactive: -8%
Cc1c2non([O-])c-2c(C)[n+](=O)[n+]1[O-] | inactive: -4%
CC(C)(C)C(=O)NC(Sc1ccccc1)C(Cl)(Cl)Cl (centres undefined) | inactive: 2%
O=P1(Nc2nc3ccc(Cl)cc3s2)COc2ccccc2O1 (centres undefined) | inactive: 1%
CCOc1ccc(C2=NCC(CBr)S2)cc1 (centres undefined) | inactive: -1%
CC(=O)Nc1ccc(Oc2c([N+](=O)[O-])cc([N+](=O)[O-])cc2[N+](=O)[O-])cc1 | inactive: 2%
O=C(NC1CCS(=O)(=O)C1)NP(=S)(Oc1ccccc1)Oc1ccccc1 (centres undefined) | inactive: -7%
CCNC(=S)/N=C(\N)N[N+](=O)[O-] | inactive: 3%
c1ccc(-c2nn[nH]n2)c(-c2nn[nH]n2)c1 | inactive: 0%
CCOC(=O)NC(Sc1ccccc1)C(Cl)(Cl)Cl (centres undefined) | inactive: 0%
O=c1c2cc([N+](=O)[O-])ccc2[nH]c2c([N+](=O)[O-])cc([N+](=O)[O-])cc12 | inactive: 0%
COC(=O)c1cc2c(s1)N=C(c1ccccc1)N(C)P2(=O)N1CCOCC1 (centres undefined) | inactive: -2%
CC(=O)NC(SC(=S)N(CC(C)C)CC(C)C)C(Cl)(Cl)Cl (centres undefined) | inactive: -2%
Cc1ccc(OP(=O)(Nc2ccccn2)Oc2ccc(C)cc2)cc1 | inactive: 0%
CCC(=O)N1C2C3N(C(=O)CC)C1C1N(C(=O)CC)C(C(N1C(=O)CC)N3C(=O)CC)N2C(=O)CC | inactive: 3%
O=P(Nc1ccccn1)(c1ccc(Br)cc1)c1ccc(Br)cc1 | inactive: 0%
C(Cc1nn[nH]n1)Cc1nn[nH]n1 | inactive: -1%
O=C(OC1CN2CCC1CC2)c1cccc(Cl)c1 (centres undefined) | inactive: 1%
CC(=O)NC(SC(=S)N(C)C)C(Cl)(Cl)Cl (centres undefined) | inactive: -10%
c1nnnn1CCn1cnnn1 | inactive: -1%
O=P(Nc1nccs1)(c1ccccc1)c1ccccc1 | inactive: 0%
CC(C)C(=O)NC(Sc1ccccc1)C(Cl)(Cl)Cl (centres undefined) | inactive: -6%
